Results as given in patent US10442819B2, “Tricyclic compounds as inhibitors of mutant IDH enzymes” (Merck Sharp & Dohme Corp., priority 2014, dated 2019).

By UniProt entry, the sequences of proteins in these tests, tags left out.
UniProt O75874, whole entry R132H: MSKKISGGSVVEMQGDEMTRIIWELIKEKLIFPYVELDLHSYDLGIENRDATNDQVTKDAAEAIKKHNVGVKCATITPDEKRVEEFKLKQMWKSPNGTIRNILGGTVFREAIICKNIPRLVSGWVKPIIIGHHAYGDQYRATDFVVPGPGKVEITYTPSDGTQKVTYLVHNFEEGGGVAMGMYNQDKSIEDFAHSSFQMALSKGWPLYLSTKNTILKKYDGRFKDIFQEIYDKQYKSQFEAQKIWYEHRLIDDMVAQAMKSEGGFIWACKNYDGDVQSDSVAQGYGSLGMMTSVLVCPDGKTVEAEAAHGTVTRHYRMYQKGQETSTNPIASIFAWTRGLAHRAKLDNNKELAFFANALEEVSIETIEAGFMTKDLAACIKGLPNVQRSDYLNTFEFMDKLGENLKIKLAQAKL

Molecular target: R132H mutant IDH1 enzyme (Homo sapiens (Human), UniProt O75874, R132H)
Experiment: R132H IDH1 Enzymatic Assay
Format: biochemical
Conditions: R132H mutant IDH1 enzyme 1.5 nM final; luminescence readout; read-out: IC50

Row | IC50 [nM] | SMILES
1 | 12 | C[C@@]12C[C@@H](CO1)N(c1ccc3c(c1)N(C(=O)C1CCN(CC(F)(F)F)CC1)Cc1cccnc1N3)C2 [Example 348, 8-[(1S,4S)-1-methyl-2-oxa-5-azabicyclo[2.2.1]hept-5-yl]-6-{[1-(2,2,2-trifluoroethyl)piperidin-4-yl]carbonyl}-6,11-dihydro-5H-pyrido[2,3-b][1,5]benzodiazepine]
2 | 87 | COC1CCC(C(=O)N2Cc3cccnc3Nc3ccc(CCc4ccccn4)cc32)CC1 (stereo not drawn) [Example 425, 6-[(4-methoxycyclohexyl)carbonyl]-8-(2-pyridin-2-ylethyl)-6,11-dihydro-5H-pyrido[2,3-b][1,5]benzodiazepine]
3 | 16 | O=C(C1CCN(CC(F)(F)F)CC1)N1Cc2cccnc2Nc2ccc(N3C[C@H]4C[C@@H]3CO4)cc21 [Example 307, 8-[(1R,4R)-2-oxa-5-azabicyclo[2.2.1]hept-5-yl]-6-{[1-(2,2,2-trifluoroethyl)piperidin-4-yl]carbonyl}-6,11-dihydro-5H-pyrido[2,3-b][1,5]benzodiazepine]
4 | 599 | COC1CCC(C(=O)N2Cc3cccnc3Nc3ccc(CCC(=O)N4CCOCC4)cc32)CC1 (stereo not drawn) [Example 427, 6-[(4-methoxycyclohexyl)carbonyl]-8-(3-morpholin-4-yl-3-oxopropyl)-6,11-dihydro-5H-pyrido[2,3-b][1,5]benzodiazepine]
5 | 303 | CO[C@H]1CC[C@H](C(=O)N2Cc3cccnc3Nc3ccc(N4CCOCCC4C)cc32)CC1 (stereo partly drawn) [Example 229, 6-[(trans-4-methoxycyclohexyl)carbonyl]-8-(5-methyl-1,4-oxazepan-4-yl)-6,11-dihydro-5H-pyrido[2,3-b][1,5]benzodiazepine]
6 | 270 | COC1CCC(C(=O)N2Cc3cccnc3Nc3ccc(N4CC[C@@H](OC)C4)cc32)CC1 (single isomer, unassigned) [Example 205]
7 | 100 | CC(C)O[C@H]1CC[C@H](C(=O)N2Cc3cccnc3Nc3ccc(N4CC5(CCOC5)C4)cc32)CC1 [Example 309, 6-{[trans-4-(1-methylethoxy)cyclohexyl]car-bonyl}-8-(6-oxa-2-azaspiro[3.4]oct-2-yl)-6,11-dihydro-5H-pyrido[2,3-b][1,5]benzodiazepine]
8 | 404 | CO[C@H]1CC[C@H](C(=O)N2Cc3cccnc3Nc3ccc(N4CC(C)(C)OC(C)(C)C4)cc32)CC1 [Example 287, 6-[(trans-4-methoxycyclohexyl)carbonyl]-8-(2,2,6,6-tetramethylmorpholin-4-yl)-6,11-dihydro-5H-pyrido[2,3-b][1,5]benzodiazepine]
9 | 237 | O=C([C@H]1CC[C@@H](N2CC(F)(F)C2)CC1)N1Cc2cccnc2Nc2ccc(N3CCOCC3)cc21 [Example 459, 6-{(cis-4-(3,3-difluoroazetidin-1-yl)cyclohexyl]carbonyl}-8-morpholin-4-yl-6,11-dihydro-5H-pyrido[2,3-b][1,5]benzodiazepine]
10 | 266 | CO[C@H]1CN(c2ccc3c(c2)N(C(=O)[C@H]2CC[C@H](OC)CC2)Cc2cccnc2N3)CC[C@@H]1F (single isomer, unassigned) [Example 215]
11 | 91 | COc1ccc(-c2ccc3c(c2)N(C(=O)[C@H]2CC[C@H](OC)CC2)Cc2cccnc2N3)cn1 [Example 405, 6-[(trans-4-methoxycyclohexyl)carbonyl]-8-(6-methoxypyridin-3-yl)-6,11-dihydro-5H-pyrido[2,3-b][1,5]benzodiazpine]
12 | 62 | CC(C)(C#N)c1ccc2c(c1)N(C(=O)[C@H]1CC[C@@H](NCC(F)(F)F)CC1)Cc1cccnc1N2 [Example 436, 2-methyl-2-[6-({cis-4-[(2,2,2-trifluoroethyl)amino]cyclohexyl}carbonyl)-6,11-dihydro-5H-pyrido[2,3-b][1,5]benzodiazepin-8-yl]propanenitrile]
13 | 51 | O=C([C@H]1CC[C@@H](NC2(C(F)(F)F)CC2)C1)N1Cc2cccnc2Nc2ccc(N3CCOCC3)cc21 (single isomer, unassigned) [Example 471]

More lines, now with the values behind:

Row | SMILES | IC50 [nM]
14 | CCO[C@H]1C[C@@H](C(=O)N2Cc3cccnc3Nc3ccc(N4C[C@@H]5CC[C@H]4CO5)cc32)C[C@@H]1F [Example 157, 6-{[(1R,3S,4S)-3-ethoxy-4-fluorocyclopentyl]carbon-yl}-8-[(1S,4S)-2-oxa-5-azabicyclo[2.2.2]oct-5-yl]-6,11-dihydro-5H-pyrido[2,3-b][1,5]benzodiazepine] | 13
15 | CC(C)O[C@H]1CC[C@H](C(=O)N2Cc3cccnc3Nc3ccc(N4CC5COCC(C4)O5)cc32)OC1 [Example 47, (8-(3,9-dioxa-7-azabicyclo[3.3.1]nonan-7-yl)-5,11-dihydro-6H-benzo[b]pyrido[2,3-e][1,4]diazepin-6-yl)((2R,5S)-5-isopropoxytetrahydro-2H-pyran-2-yl)methanone] | 54
16 | O=C([C@H]1CC[C@@H](OC2CC2(F)F)CC1)N1Cc2cccnc2Nc2ccc(N3CCOCC3)cc21 (stereo in doubt) [Example 105, 6-[(cis-4-{[(1S)-2,2-difluorocyclopropyl]oxy}-cyclohexyl)carbonyl]-8-morpholin-4-yl-6,11-dihydro-5H-pyrido[2,3-b][1,5]benzodiazepine] | 59
17 | CO[C@H]1CC[C@H](C(=O)N2Cc3cccnc3Nc3ccc(N4CCOCC4)cc32)CC1 [Example 52, 6-[(Trans-4-methoxycyclohexyl)carbonyl]-8-morpholin-4-yl-6,11-dihydro-5H-pyrido[2,3-b][1,5]benzodiazepine] | 654
18 | CC(C)O[C@H]1CCC(C(=O)N2Cc3cccnc3Nc3ccc(C4CCCOC4)cc32)OC1 (single isomer, unassigned) [Example 27] | 10
19 | COCC(OC)c1ccc2c(c1)N(C(=O)[C@H]1CC[C@H](OC(C)C)CO1)Cc1cccnc1N2 (single isomer, unassigned) [Example 20] | 72
20 | CC(C)(C)[C@H]1CC[C@@H](C(=O)N2Cc3cccnc3Nc3ccccc32)CC1 [Example 61, 6-[(cis-4-tert-butylcyclohexyl)carbon-yl]-6,11-dihydro-5H-pyrido[2,3-b][1,5]benzodiazepine] | 595
21 | O=C([C@H]1CC[C@H](OCC(F)F)CC1)N1Cc2cccnc2Nc2ccc(N3CCOCC3)cc21 [Example 163, 6-{[trans-4-(2,2-difluoroethoxy)cyclohex-yl]carbonyl}-8-morpholin-4-yl-6,11-dihydro-5H-pyrido[2,3-b][1,5]benzodiazepine] | 117
22 | N#C[C@H]1CC[C@H](C(=O)N2Cc3cccnc3Nc3ccc(N4CCOCC4)cc32)CC1 [Example 86, trans-4-[(8-morpholin-4-yl-5,11-dihydro-6H-pyrido[2,3-b][1,5]benzodiazepin-6-yl)carbonyl]cyclohexane carbonitrile] | 801
23 | CC(C)O[C@H]1CC[C@H](C(=O)N2Cc3cccnc3Nc3ccc(-c4cnn(C)c4)cc32)OC1 [Example 140, ((2R,5S)-5-isopropoxytetrahydro-2H-pyran-2-yl)(8-(1-methyl-1H-pyrazol-4-yl)-5,11-dihydro-6H-benzo[b]pyrido[2,3-e][1,4]diazepin-6-yl)methanone] | 14
24 | O=C([C@H]1CCCN(CC(F)(F)F)C1)N1Cc2cccnc2Nc2ccc(N3CCOCC3)cc21 [Example 51, 8-morpholin-4-yl-6-{[(3S)-1-(2,2,2-trifluoroethyl)piperidin-3-yl]carbonyl}-6,11-dihydro-5H-pyrido[2,3-b][1,5]benzodiazepine] | 662
